In patent publication EP1352977A2, “Novel Desulfitobacterium strain for the degradation of chloroalkenes” (UNIVERSITEIT GENT, priority 2002, dated 2003):

Tests used:
[1] = system: Dehalococcoides ethenogenes strain 195; details: cited from earlier work; for selectivity VC: VC produced upon conversion; for selectivity ethene: molar selectivity
[2] = system: Desulfitobacterium dichloroeliminans strain DCA1; assay: 1,2-DCA dechlorination by culture of strain DCA1 (rate, conversion, selectivity)
[3] = system: bi-bacterial consortium comprising Desulfitobacterium dichloroeliminans strain DCA1 and Enterococcus cells; assay: Dechlorination of 1,2-DCA containing groundwater by 1 vol% inoculum of bacterial consortium

For 1,2-dichloroethane, which “selectivity VC” value ([1]; listed as 1,2 DCA) is on record?
Its value is 1%.

And the “selectivity VC” value [1]?
Its value is 1%.

And the “1,2 DCA conversion rate” value [1]?
The value was 2 to 36 µmol (L.h).

What about the conversion [1] of the same substance?
Its conversion is “∼100%”.

What about the selectivity ethene ([1]; listed as 1,2 DCA) of the same substance?
Its selectivity ethene is greater than 99.0%.

And the selectivity ethene [1]?
Its selectivity ethene is 99%.

And the dechlorination rates ([2]; pure culture of strain DCA1, media containing 0.1% (w/w) yeast extract)?
Its dechlorination rates is “exceeded 250 nmol Cl^- /mgprotein/min”.

What about the “1,2 DCA conversion rate” value ([2]; strain DCA1) of the same substance?
The value was 5 to 56 µmol (L.h).

What about the “time to convert 400 µM of 1,2-DCA” value ([2]; vitamin B12 containing media, 5 vol% transfer) of the same substance?
The value was no more than 3 days.

And the “amount of 1,2-DCA dichloroeliminated” value ([2]; with additional electron donors H2, lactate or pyruvate, 0.02% yeast extract)?
Its value is “up to 6 mM”.

What about the “time to full detoxification” value ([3]; groundwater containing 400 µM of 1,2-DCA, laboratory conditions, 18°C) of the same substance?
Its value is no more than 1 week.

What about the “time to dechlorinate 400 µM 1,2-DCA containing groundwater” value ([3]; technical grade lactate, 13°C) of the same substance?
Its value is no more than 10 days.

Read-outs that look alike come from different tables or passages of the source.
